Test results from ChEMBL document CHEMBL5120850, “Conformational adjustment overcomes multiple drug-resistance mutants of tropomyosin receptor kinase” (Eur J Med Chem, 2022).

Chains of the proteins cited; added tags and fusions are not shown. Lines headed by an entry give the natural chain unless they say otherwise; changes in a name come on top.
UniProt P08922: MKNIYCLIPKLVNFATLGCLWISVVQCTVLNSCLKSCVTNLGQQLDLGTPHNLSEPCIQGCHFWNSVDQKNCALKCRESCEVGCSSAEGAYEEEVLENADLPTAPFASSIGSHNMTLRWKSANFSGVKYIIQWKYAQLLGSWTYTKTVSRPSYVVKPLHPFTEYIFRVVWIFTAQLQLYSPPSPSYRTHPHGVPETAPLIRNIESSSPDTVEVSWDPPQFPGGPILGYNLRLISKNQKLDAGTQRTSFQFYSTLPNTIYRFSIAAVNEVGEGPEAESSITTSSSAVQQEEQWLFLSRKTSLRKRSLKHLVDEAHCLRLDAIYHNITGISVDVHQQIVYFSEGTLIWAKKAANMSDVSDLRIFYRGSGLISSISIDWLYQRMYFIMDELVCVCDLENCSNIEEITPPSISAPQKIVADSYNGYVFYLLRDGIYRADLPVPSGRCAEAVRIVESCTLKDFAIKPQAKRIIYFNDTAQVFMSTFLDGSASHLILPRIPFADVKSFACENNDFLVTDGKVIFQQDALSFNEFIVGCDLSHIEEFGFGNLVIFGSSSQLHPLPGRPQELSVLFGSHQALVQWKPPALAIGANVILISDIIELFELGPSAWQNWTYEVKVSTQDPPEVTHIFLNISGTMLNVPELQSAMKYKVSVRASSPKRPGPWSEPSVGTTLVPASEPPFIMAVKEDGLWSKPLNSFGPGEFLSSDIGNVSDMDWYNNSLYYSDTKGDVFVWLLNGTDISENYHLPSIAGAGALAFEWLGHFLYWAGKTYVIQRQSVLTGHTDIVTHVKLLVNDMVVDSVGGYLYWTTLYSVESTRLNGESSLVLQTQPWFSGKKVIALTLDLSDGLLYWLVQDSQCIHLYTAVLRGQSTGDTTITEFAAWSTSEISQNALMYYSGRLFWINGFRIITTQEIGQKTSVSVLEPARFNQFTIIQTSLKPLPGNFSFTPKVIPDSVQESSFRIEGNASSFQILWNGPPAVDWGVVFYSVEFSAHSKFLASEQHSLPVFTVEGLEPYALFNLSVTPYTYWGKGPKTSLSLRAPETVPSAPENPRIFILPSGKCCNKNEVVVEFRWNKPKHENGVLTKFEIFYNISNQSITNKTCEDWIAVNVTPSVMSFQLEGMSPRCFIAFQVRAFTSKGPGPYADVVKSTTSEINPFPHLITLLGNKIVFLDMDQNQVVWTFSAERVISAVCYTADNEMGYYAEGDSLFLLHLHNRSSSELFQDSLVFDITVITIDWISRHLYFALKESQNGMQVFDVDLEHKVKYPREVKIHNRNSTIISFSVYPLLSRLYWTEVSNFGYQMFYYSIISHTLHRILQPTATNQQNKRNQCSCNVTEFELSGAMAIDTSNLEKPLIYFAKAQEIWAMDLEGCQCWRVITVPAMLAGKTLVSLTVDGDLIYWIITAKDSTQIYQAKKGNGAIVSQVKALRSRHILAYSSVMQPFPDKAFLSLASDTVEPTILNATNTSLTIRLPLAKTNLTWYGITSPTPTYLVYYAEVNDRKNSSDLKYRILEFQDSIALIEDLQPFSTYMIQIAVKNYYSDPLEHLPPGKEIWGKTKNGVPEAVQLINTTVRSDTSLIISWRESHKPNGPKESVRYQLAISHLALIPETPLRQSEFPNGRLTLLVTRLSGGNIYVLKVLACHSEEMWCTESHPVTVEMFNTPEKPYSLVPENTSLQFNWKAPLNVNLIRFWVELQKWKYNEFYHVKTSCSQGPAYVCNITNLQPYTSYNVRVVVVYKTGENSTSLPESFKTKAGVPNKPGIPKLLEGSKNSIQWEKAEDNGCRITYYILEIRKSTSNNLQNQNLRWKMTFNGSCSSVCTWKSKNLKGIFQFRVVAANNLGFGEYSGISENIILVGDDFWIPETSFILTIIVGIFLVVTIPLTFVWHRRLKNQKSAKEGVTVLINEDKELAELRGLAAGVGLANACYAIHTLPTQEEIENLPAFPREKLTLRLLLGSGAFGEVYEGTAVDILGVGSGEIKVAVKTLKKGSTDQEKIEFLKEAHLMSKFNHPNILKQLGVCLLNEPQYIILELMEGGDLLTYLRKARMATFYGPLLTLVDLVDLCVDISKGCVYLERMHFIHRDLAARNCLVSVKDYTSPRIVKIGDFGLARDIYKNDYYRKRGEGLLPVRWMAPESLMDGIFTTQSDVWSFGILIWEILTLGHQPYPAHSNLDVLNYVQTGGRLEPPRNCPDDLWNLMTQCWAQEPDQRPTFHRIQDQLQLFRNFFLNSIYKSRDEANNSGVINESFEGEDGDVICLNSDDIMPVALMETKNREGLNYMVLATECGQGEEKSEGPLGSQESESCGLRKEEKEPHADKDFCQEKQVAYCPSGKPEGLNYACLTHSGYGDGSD
UniProt Q9UM73: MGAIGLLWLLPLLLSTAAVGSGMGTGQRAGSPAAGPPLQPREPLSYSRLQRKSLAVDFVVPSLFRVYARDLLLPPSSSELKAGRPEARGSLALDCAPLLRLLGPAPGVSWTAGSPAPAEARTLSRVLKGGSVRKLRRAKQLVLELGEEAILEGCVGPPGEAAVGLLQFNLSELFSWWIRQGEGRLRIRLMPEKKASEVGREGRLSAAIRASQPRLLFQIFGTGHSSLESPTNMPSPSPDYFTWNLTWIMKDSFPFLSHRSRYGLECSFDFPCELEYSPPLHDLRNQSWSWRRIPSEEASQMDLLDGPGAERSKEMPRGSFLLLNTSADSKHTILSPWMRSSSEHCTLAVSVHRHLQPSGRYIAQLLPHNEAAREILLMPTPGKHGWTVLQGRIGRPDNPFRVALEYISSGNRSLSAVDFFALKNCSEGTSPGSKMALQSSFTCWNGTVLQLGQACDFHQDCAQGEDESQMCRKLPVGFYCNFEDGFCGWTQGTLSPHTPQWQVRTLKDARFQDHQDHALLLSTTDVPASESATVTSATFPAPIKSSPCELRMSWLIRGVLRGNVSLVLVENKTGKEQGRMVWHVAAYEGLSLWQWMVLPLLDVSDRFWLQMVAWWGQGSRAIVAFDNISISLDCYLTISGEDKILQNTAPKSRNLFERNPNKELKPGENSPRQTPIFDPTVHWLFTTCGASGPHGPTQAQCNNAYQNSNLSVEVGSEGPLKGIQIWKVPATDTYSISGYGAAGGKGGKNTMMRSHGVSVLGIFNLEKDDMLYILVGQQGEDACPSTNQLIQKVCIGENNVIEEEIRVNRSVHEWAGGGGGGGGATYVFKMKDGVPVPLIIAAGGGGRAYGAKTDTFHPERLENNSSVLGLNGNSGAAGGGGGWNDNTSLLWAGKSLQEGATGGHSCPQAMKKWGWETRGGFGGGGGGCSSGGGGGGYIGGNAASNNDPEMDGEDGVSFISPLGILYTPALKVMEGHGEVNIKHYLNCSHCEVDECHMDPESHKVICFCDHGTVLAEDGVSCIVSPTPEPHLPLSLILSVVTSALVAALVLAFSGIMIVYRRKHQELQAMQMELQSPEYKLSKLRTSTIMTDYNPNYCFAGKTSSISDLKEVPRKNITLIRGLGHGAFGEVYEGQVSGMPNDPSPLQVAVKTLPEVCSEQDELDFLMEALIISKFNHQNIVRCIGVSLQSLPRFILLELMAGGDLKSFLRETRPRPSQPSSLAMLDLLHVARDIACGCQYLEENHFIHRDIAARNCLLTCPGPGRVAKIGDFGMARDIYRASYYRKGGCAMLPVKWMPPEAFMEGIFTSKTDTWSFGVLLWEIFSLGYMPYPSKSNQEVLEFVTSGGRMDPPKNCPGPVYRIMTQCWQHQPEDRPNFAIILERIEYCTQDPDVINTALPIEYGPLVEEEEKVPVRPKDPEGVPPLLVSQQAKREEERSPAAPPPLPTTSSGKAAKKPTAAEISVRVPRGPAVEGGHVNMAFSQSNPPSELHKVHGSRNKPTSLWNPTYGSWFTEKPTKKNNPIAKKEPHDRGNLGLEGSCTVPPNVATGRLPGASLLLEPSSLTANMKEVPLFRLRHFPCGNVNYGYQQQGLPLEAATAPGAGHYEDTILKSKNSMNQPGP
UniProt P23458: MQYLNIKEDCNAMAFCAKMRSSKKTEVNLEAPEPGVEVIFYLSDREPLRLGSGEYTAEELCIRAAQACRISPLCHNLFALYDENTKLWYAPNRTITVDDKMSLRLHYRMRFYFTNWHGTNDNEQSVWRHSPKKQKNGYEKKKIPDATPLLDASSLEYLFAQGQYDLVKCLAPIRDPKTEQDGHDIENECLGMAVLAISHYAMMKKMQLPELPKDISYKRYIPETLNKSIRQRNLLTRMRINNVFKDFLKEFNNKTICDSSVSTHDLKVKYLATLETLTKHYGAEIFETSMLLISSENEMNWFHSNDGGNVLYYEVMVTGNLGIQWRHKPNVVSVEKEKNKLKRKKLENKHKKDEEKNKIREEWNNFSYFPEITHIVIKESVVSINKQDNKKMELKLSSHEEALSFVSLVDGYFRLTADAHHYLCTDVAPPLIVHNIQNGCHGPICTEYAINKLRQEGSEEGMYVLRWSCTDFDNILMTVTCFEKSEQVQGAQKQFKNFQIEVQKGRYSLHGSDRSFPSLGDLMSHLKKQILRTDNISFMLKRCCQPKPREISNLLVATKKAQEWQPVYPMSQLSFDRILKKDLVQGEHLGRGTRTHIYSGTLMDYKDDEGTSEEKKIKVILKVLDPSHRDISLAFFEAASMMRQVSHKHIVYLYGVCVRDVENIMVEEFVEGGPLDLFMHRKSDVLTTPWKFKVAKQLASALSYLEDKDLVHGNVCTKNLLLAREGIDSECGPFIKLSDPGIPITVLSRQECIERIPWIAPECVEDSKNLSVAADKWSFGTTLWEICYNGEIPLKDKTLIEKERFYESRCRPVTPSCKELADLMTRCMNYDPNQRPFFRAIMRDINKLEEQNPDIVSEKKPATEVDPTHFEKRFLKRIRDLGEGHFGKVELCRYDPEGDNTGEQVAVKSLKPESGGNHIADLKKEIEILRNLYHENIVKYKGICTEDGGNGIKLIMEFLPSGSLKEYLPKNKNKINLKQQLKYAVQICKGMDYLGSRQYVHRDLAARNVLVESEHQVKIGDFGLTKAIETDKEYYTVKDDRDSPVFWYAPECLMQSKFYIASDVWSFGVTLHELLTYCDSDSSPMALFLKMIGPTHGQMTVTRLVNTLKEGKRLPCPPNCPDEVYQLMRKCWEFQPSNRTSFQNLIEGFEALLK

Experiments:
[1] = target: Proto-oncogene tyrosine-protein kinase ROS (Homo sapiens) (UniProt P08922); experiment: Inhibition of ROS1 (unknown origin) at 1 uM relative to control
[2] = target: ALK tyrosine kinase receptor (Homo sapiens) (UniProt Q9UM73); experiment: Inhibition of ALK (unknown origin) at 1 uM relative to control
[3] = target: Tyrosine-protein kinase JAK1 (Homo sapiens) (UniProt P23458); experiment: Inhibition of JAK1 (unknown origin) at 1 uM relative to control

| Compound | inhibition [1] | inhibition [2] | inhibition [3] |
| --- | --- | --- | --- |
| Fc1ccc(OCC(F)(F)F)c([C@H]2CCCN2c2ccn3ncc(-c4cn[nH]c4)c3n2)c1 | 99% | 62% | 11% |
| C[C@@H]1CCc2ncc(F)cc2[C@H]2CCCN2c2ccn3ncc(c3n2)C(=O)N1 [SELITRECTINIB] | 96% | 78% | 13% |
